We go through one compound from patent publication US20040029926A1, “Thiazolidinone nitrate salt” (priority 2000, published 2004).

The conditions of the data set: 1 month. On the procedure: The solid state stability of the drug substance was determined by storing approximately 1.0 g of the material in a glass bottle at a) 40° C./75% Relative Humidity (RH), open exposure, for 1 month and b) at 50° C., closed, for 1 month. The material was assayed by HPLC for final content and degradation products in both cases.

Read-outs that look alike come from different tables or passages of the source.

As for `CN(CCOc1ccc(CC2SC(=O)NC2=O)cc1)c1ccccn1.O=[N+]([O-])O` (stereo not shown) [Nitrate, 5-[4-[2-(N-methyl-N-(2-pyridyl)amino)ethoxy]benzyl]thiazolidine-2,4-dione nitrate], where the note is “40° C./75% RH, open exposure”, the “Solid state stability: HPLC assay” value stood at 99 % initial and the “Solid state stability: degradation” value is reported as “No significant degradation observed”. In addition, under “50° C., closed”, the “Solid state stability: HPLC assay” value was found to be 99 % initial and the “Solid state stability: degradation” value is on record as “No significant degradation observed”.
